Assay results published in PMC5515971, “Utility of spherical human liver microtissues for prediction of clinical drug-induced liver injury” (Archives of Toxicology, 2017).

Tested on: 3D human liver microtissues (hLiMT)
Experiment: Cytotoxicity (cellular ATP, CellTiter-Glo 2.0) in 3D human liver microtissues, 14 day repeat-dose treatment
Settings: Hepatocyte, 336 h, read-out: Geomean IC50 [µM]

Work on `CN(CCOc1ccc(CC2SC(=O)NC2=O)cc1)c1ccccn1` (stereo not shown) [Rosiglitazone] yielded an IC50 of 37.7 µM.
